Test results: patent US20250163052A1, “cGAS INHIBITORS AND USES THEREOF” (Cornell University, priority 2022, published 2025)

Test: Metabolic stability in human liver microsomes

C[C@]12CC[C@H]3[C@@H](CCC4=CC(=O)CC[C@@]43C)[C@@H]1CC[C@@H]2O [Testosterone, reference compound]
T½: 12.7 min
